SMILES strings stand for the structures. The list shows a part of the results, in another mix than the full data. Some results for these compounds are left out of this collection, so the calls shown say nothing about other tests. The source made the active and inactive calls.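 How the source made its calls: active means inhibition above a set limit, 3 SD over the mean compound inhibition (cut at about 44% in these data); inactive means the rest.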

The nature of this experiment: growth inhibitors of yeast BB579 in restrictive medium, primary screen, yeast lifespan-shortening project, S. cerevisiae (AID 804). The note with it: OD615, 48 h, at 10 µM, active compounds read high. An outline of the steps:
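controls = amphotericin B 10 µg/mL, positive | assay system = DeaD yeast strain BB579 | schedule = 48 h compound exposure at 30 °C after 4 h preincubation | detection = OD615 turbidity measurement | medium = restrictive CSMM-D medium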
Usually inhibition stands for the drop in the measured response relative to a control, in per cent. `CC(C)N1C(=O)CC2(CCN(CCOC(=O)C(O)(c3ccccc3)c3ccccc3)CC2)C1=O`: the inhibition is inactive: -13.6%.
With `CCN1CCCC(OC(=O)C2(O)c3ccccc3C=Cc3ccccc32)C1` (stereo not given), the inhibition was inactive: -1.62%.
Take `CN(C)C1CCCC1OC(=O)C(O)(c1ccccc1)c1ccccc1` (stereo not given): the inhibition was inactive: -21.1%.
For `CN(C)c1cccc(C(=O)NCC2(N(C)C)CCCCC2)c1`, the inhibition was inactive: -14.4%.
Consider `O=C(OC1CN2CCC1CC2)C(CO)(c1ccccc1)c1ccccc1` (stereo not given), for which the inhibition is inactive: -14.7%.

For the origin of these results see PubChem BioAssay AID804 (SRMLSC, 2007).
